Measured values taken from PubChem BioAssay AID493084 (National Center for Advancing Translational Sciences (NCATS), 2011).
This is a selection; strong and weak results do not stand in their true shares. Some structures show a salt or complex split into parts, the way the source records it. Active and inactive are the calls of the source. Cut-off read from the data, not from the text of the source: active = activation above about 30%; inactive = the rest.

The chains behind the UniProt entries cited, without tags or fusion partners.
UniProt P34981, whole entry: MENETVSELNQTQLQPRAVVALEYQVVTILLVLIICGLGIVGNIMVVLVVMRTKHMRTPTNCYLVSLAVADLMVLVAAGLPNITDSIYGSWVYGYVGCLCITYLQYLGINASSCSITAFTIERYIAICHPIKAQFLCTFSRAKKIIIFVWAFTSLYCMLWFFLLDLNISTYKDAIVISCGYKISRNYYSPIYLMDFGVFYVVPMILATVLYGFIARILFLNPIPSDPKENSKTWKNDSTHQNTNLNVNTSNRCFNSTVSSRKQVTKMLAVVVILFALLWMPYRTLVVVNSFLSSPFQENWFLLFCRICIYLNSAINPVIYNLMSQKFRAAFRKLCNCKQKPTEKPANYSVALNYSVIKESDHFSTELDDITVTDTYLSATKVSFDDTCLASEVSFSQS

Target: Thyrotropin-releasing hormone receptor (Homo sapiens) (UniProt P34981)
Assay: qHTS for Small Molecule Agonists and Allosteric Enhancers of Human TRH Receptor: Primary Screen for Agonists. Note: 0% is about no effect.
Details: TRHR cells, calcium flux fluo-8, FDSS agonist mode; at 2 µM; hits give high values
Excerpt: NIH Chemical Genomics Center [NCGC] NIH Molecular Libraries Probe Centers Network [MLPCN] MLPCN Grant: MH089816-01 Assay Submitter (PI): Marvin Gershengorn This project aims to identify small drug-like molecules that activate (agonists) the thyrotropin releasing hormone (TRH) receptor (TRHR) or enhance its TRH-stimulated activity (allosteric enhancers). TRHR, a drug-accessible cell surface receptor expressed in specific brain regions, and its ligand TRH have been implicated in several central nervous system disorders, including depression and anxiety. Small molecule TRHR agonists or allosteric enhancers that are metabolically stable and able to cross the blood-brain barrier might serve as probes to elucidate the roles of brain TRH receptors in animal models, and might be valuable as lead compounds for the development of drugs to treat patients with central nervous system disorders. Upon TRHR-Gq activation in TRHR cells, intracellular calcium is released from stores in the endoplasmic reticulum. […] This primary screen measures compound-induced activation of calcium release.
For the HTS assay freshly prepared cells are plated at a density of 2000/well in 3 ul of complete DMEM medium containing 10% serum in 1536-well plates and cultured over night at 37 C in a humidified incubator with 5% CO2. The next day, 2 ul of a no wash calcium dye (ABD Bioquest) was added to the cells and plates were incubated at room temperature for 1 hour. For the assay, assay plates were loaded into the FDSS kinetic plate reader. A 10 cycle (1 second/cycle) baseline measurement is taken and then the FDSS online 1536 pintool delivers 23 nl of compound library (as well as TRH controls) to the plate. The plate is measured for kinetically at 1 cycle/sec for 180 seconds and is considered to be the agonist portion of the assay (eg, compounds which activate a positive calcium response during this portion are flagged as potential agonists). Following the 180 second read, 1 ul of either an EC20 (positive modulation assay) is delivered by an onboard pipette head. Measurements are taken kinetically for an additional 180 seconds. TRHR FDSS Screening Protocol 1. Reagent, 3 uL 2000 cells/well 1536 TC treated Black plate in media containing 10% FCS 2. Time, 18 hours, 33.5C 5% CO2 (cells grown at 37C) 3. Reagent, 2 uL ABD fluo-8 Ca dye 4. Time, 30 min-1.5hrs hours, Room temp (6 plates/batch) 5. Detector, EX 480/EM 530C, FDSS 10 cycles baseline (1sec/cycle) 6. Compound, 23 nL of stock solution from library 7. Detector, EX 480/EM 530C, FDSS […] (1sec/cycle) Agonist mode 8. Compound, 1 ul EC20 of TRH made up in HEPES HBSS, 10 nM final 9. Detector, EX 480/EM 530C, FDSS 100 cycles (1sec/cycle) Potentiator mode

Row | SMILES | activation
1 | CCOC(=O)N1CCC(Nc2cccc(C)c2)CC1 | inactive: -0.211%
2 | COc1cc(C(=O)NCC2(N(C)C)CCCCC2)ccc1OC(F)F | inactive: 0.566%
3 | Cc1ccc(OCC(C)C)c(CN(CCCl)CCCl)c1 | inactive: 0.166%
4 | CCOc1ccc(C)cc1CN(CCCl)CCCl | inactive: -0.183%
5 | O=C(NCC1(N2CCOCC2)CCCCC1)c1ccc(Cl)cc1 | inactive: -0.997%
6 | CCCCOc1ccc(C(=O)NCC2(N3CCOCC3)CCCCC2)cc1 | inactive: -0.248%
7 | O=C(NCC1(N2CCCCC2)CCCCC1)c1ccc(F)cc1 | inactive: 0.324%
8 | COc1ccc(NC2CCN(CCc3ccccc3)CC2)c(OC)c1 | inactive: -0.0601%
9 | CCOC(=O)N1CCC(Nc2ccc(F)cc2)CC1 | inactive: -0.431%
10 | COc1ccccc1C(=O)NCC1(N2CCOCC2)CCCCC1 | inactive: -0.102%
11 | O=C(NCC1(N2CCOCC2)CCCCC1)c1cc2ccccc2o1 | inactive: -0.606%
12 | O=C(NCC1(N2CCCCC2)CCCCC1)c1ccc(Cl)nc1 | inactive: 0.26%
13 | Cc1cc(C)cc(N(C(=O)c2ccccc2)C2CCN(C(=O)OC(C)(C)C)CC2)c1 | inactive: 0.36%
14 | CCOC(=O)N1CCC(Nc2ccc(OC)cc2)CC1 | inactive: 0.213%
15 | N#CC1(Nc2ccccc2)CCN(Cc2ccccc2)CC1 | inactive: 0.705%
16 | O=C(NCC1(N2CCCCC2)CCCCC1)c1ccc(Cl)s1 | inactive: -0.587%
17 | O=C(OC1CN2CCC1CC2)C1c2ccccc2Oc2ccccc21 (stereo unspecified) | inactive: 0.478%
18 | COc1ccc(Cl)cc1C(=O)NCC1(N2CCOCC2)CCCCC1 | inactive: 1.46%
19 | O=C(NCC1(N2CCCCC2)CCCCC1)c1ccc(=O)[nH]c1 | inactive: 0.0155%
20 | O=C(NCC1(N2CCCCC2)CCCCC1)c1cccs1 | inactive: -0.252%
21 | COc1ccc(C(=O)NCC2(N3CCCCC3)CCCCC2)cc1 | inactive: -1.81%

Row | SMILES | activation
22 | COc1ccc(C(=O)NCC2(N3CCCCC3)CCCCC2)c(OC)c1OC | inactive: -0.302%
23 | CC(C)(C)OC(=O)N1CCC(N(C(=O)c2ccccc2)c2ccc(F)cc2)CC1 | inactive: -0.296%
24 | CSc1ccccc1C(=O)NCC1(N2CCCCC2)CCCCC1 | inactive: 0.757%
25 | O=C(NCC1(N2CCCCC2)CCCCC1)c1cncc(Br)c1 | inactive: -0.327%
26 | COc1ccc2c(c1O)-c1c(O)c(OC)cc3c1[C@H](C2)[N+](C)(C)CC3.O=[N+]([O-])c1cc([N+](=O)[O-])c([O-])c([N+](=O)[O-])c1[O-] | inactive: -0.0994%
27 | O=C(OC1CN2CCC1CC2)c1ccc([N+](=O)[O-])cc1 (stereo unspecified) | inactive: 2.18%
28 | CCCCOc1ccccc1C(=O)NCC1(N2CCOCC2)CCCCC1 | inactive: -1.84%
29 | O=C(NCC1(N2CCOCC2)CCCCC1)c1ccccc1Br | inactive: 0.586%
30 | CCCOc1ccc(C(=O)NCC2(N(C)C)CCCCC2)cc1OC | inactive: 1.75%
31 | COc1ccc(CN(CCCl)CCCl)cc1Cl | inactive: -0.531%
32 | O=[N+]([O-])c1cc([N+](=O)[O-])c(OC2CCCCC2O)c([N+](=O)[O-])c1 (stereo unspecified) | inactive: 1.34%
33 | CN(C)c1cccc(C(=O)NCC2(N3CCCCC3)CCCCC2)c1 | inactive: -0.949%
34 | CC(C)c1ccc(NC2CCN(C(=O)OC(C)(C)C)CC2)cc1 | inactive: 0.872%
35 | COc1cc(OC)c(C(=O)NCC2(N(C)C)CCCCC2)cc1OC | inactive: -0.186%
36 | CCCOc1cccc(C(=O)NCC2(N3CCOCC3)CCCCC2)c1 | inactive: -1.1%
37 | O=C(NCC1(N2CCCCC2)CCCCC1)c1cccc(C(F)(F)F)c1 | inactive: 1.92%
38 | O=[N+]([O-])c1cc([N+](=O)[O-])c(NCC2CCS(=O)(=O)C2)c([N+](=O)[O-])c1 (stereo unspecified) | inactive: 1.68%
39 | CN1CCN(CCOC(=O)C(O)(c2ccccc2)c2ccccc2)CC1 | inactive: -0.214%
40 | COc1ccc(NC2CCN(C(=O)OC(C)(C)C)CC2)cc1 | inactive: 0.0674%
41 | CC(C)c1ccc(C(=O)NCC2(N3CCOCC3)CCCCC2)cc1 | inactive: -1.31%
42 | COc1cc(C(=O)NCC2(N3CCCCC3)CCCCC2)ccc1OC(F)F | inactive: 0.76%

Row | SMILES | activation
43 | O=C(NCC1(N2CCOCC2)CCCCC1)c1cc(=O)[nH]c2ccccc12 | inactive: 0.114%
44 | O=C(NCC1(N2CCCCC2)CCCCC1)c1ccc(OC(F)F)cc1 | inactive: 1.04%
45 | CSc1ccc(C(=O)NCC2(N3CCOCC3)CCCCC2)cc1 | inactive: -0.0497%
46 | O=C(NCC1(N2CCCCC2)CCCCC1)c1cccc([N+](=O)[O-])c1 | inactive: 0.456%
47 | CCOc1ccc(C(=O)NCC2(N3CCOCC3)CCCCC2)cc1 | inactive: 0.0174%
48 | CCN1CCC(Nc2ccc(Cl)cc2)CC1 | inactive: 0.651%
49 | N#CC1(Nc2ccccc2)CCN(CCc2ccccc2)CC1 | inactive: 0.801%
50 | c1ccc(CN2CCC(Nc3ccccc3)CC2)cc1 | inactive: -0.0643%
51 | CCCN1CCC(Nc2cc(OC)cc(OC)c2)CC1 | inactive: 1.52%
52 | O=C(NCC1(N2CCOCC2)CCCCC1)c1ccccc1 | inactive: 0.301%
53 | CN(C)C1(CNC(=O)c2cccc(C#N)c2)CCCCC1 | inactive: -0.869%
54 | O=C(NCC1(N2CCOCC2)CCCCC1)c1ccc([N+](=O)[O-])cc1 | inactive: -0.291%
55 | CC(C)(C)OC(=O)N1CCC(N(C(=O)c2ccccc2)c2ccc(Cl)cc2)CC1 | inactive: 0.0774%
56 | N#Cc1ccc(C(=O)NCC2(N3CCCCC3)CCCCC2)cc1 | inactive: 0.744%
57 | O=C(NCC1(N2CCOCC2)CCCCC1)c1ccccc1[N+](=O)[O-] | inactive: 0.581%
58 | CCOC(=O)C(CC)C1=NC(C)(C)Cc2ccccc21.O=[N+]([O-])c1cc([N+](=O)[O-])c(O)c([N+](=O)[O-])c1 (stereo unspecified) | inactive: -0.735%
59 | N/C(=N\O)c1c(N)no[n+]1[O-] | inactive: 0.09%
60 | CCOC(=O)N1CCC(Nc2ccc(C)cc2)CC1 | inactive: -0.009%
61 | CCc1cc(C(=O)NCC2(N3CCCCC3)CCCCC2)sc1C | inactive: 23.3%
